Values of other authors in US11149040B2, “Fused triazole agonists of the APJ receptor” (AMGEN INC., priority 2017, dated 2021).

Chains of the proteins cited; added tags and fusions are not shown. Lines headed by an entry give the natural chain unless they say otherwise; changes in a name come on top.
UniProt P35414: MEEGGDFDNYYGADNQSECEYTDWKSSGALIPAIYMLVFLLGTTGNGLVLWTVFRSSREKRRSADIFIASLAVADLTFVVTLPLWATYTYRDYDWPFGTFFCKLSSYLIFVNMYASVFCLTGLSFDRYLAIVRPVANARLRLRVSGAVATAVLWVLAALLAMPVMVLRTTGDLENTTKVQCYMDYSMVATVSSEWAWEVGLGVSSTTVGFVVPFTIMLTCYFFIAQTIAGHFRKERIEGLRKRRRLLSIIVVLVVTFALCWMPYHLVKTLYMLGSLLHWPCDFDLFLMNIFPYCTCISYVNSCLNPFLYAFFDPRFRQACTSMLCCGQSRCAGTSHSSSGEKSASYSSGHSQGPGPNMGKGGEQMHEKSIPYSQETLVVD

Target: APJ receptor (Homo sapiens (Human), UniProt P35414)
Conditions: higher than apelin-36; cited from earlier work

Which “in vitro affinity to the APJ receptor relative to apelin-36” value does the source give for Apelin-13 here?
Its value is roughly 3.5 fold.
